For two compounds, EC50 results are on record in patent US9353081B2, “Bicyclic dihydroquinoline-2-one derivatives” (Hoffmann-La Roche Inc., priority 2011, dated 2016).

Sequences of proteins named here, by UniProt entry; tags and fusion partners are left off. Residues count along the entry.
UniProt P19099, 25-503: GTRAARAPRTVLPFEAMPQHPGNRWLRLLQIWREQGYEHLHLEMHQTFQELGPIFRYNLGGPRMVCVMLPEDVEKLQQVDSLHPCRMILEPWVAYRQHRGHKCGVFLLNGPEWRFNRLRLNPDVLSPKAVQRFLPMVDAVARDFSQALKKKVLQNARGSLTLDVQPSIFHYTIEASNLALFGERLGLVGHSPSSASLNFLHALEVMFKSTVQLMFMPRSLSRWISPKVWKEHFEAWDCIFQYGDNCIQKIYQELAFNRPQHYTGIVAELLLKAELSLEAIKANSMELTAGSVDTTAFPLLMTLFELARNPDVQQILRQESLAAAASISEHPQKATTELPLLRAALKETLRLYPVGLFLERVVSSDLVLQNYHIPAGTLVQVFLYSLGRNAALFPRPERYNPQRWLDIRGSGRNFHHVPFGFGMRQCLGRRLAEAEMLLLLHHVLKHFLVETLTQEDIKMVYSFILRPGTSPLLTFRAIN
UniProt P15538, 25-503: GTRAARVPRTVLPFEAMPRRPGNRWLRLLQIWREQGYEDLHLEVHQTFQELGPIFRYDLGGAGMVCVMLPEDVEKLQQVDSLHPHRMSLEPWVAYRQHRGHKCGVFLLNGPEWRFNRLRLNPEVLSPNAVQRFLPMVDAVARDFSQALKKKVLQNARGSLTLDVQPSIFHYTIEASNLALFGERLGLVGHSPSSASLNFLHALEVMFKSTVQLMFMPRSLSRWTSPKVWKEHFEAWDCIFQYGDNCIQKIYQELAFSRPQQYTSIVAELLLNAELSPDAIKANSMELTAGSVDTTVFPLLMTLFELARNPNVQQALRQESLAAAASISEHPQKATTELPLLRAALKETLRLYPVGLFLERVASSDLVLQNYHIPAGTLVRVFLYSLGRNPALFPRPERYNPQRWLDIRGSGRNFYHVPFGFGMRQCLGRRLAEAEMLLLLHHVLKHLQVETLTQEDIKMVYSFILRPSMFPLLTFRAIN

What is called EC50 is the concentration giving half of the maximal effect. Lower therefore signals an effect from little substance.

The target of one test is human CYP11B2 (Homo sapiens (Human), UniProt P19099). Description: G-402 cellular enzyme assay, human CYP11B2 (aldosterone release, HTRF). The format is cell-based. The conditions noted are these: G-402 cells expressing human CYP11B2; 1 μM Deoxycorticosterone. An excerpt: (§1) Specifically we developed stable G-402 cells expressing ectopically human CYP11B1, human CYP11B2, human CYP11A1, cynomolgus CYP11B1 or cynomolgus CYP11B2 enzyme activity.
(§2) The expression plasmids contains the ORF for either human/cyno CYP11B1 or CYP11B2 under the control of a suitable promoter (CMV-promoter) and a suitable resistance marker (neomycin). Using standard techniques the expression plasmid is transfected into G-402 cells and these cells are then selected for expressing the given resistance markers. Individual cell-clones are then selected and assessed for displaying the desired enzymatic activity using 11-Deoxycorticosterone (Cyp11B2) or 11-Deoxycortisol (Cyp11B1) as a substrate.
(§3) For assaying enzymatic activity, cells were plated onto 96 well plates and incubated for 16 h. An aliquot of the supernatant is then transferred and analyzed for the concentration of the expected product (Aldosterone for CYP11B2; Cortisol for CYP11B1). The concentrations of these steroids can be determined using HTRF assays from CisBio analyzing either Aldosterone or Cortisol.
(§4) Inhibition of the release of produced steroids can be used as a measure of the respective enzyme inhibition by test compounds added during the cellular enzyme assay. […]
(§5) [formula] wherein, A is the maximum y value, B is the EC50 factor determined using XLFit, C is the minimum y value and D is the slope value. […]
A general note: In TR-FRET formats the signal depends on donor and acceptor labels being close together.

Another test concerns the target human CYP11B1 (Homo sapiens (Human), UniProt P15538). The experiment in a line: G-402 cellular enzyme assay, human CYP11B1 (cortisol release, HTRF). The conditions noted are these: G-402 cells expressing human CYP11B1; 1 μM Deoxycortisol. The format is cell-based.
Text: as §1, §2, §3, §4, §5

Consider “(−)-N-[(7R,8S or 7S,8R)-4-(7-Fluoro-1-methyl-2-oxo-1,2,3,4-tetrahydro-quinolin-6-yl)-7-methyl-5,6,7,8-tetrahydro-isoquinolin-8-yl]-propionamide [Example 44]”, for which the values for the EC50 at human CYP11B2 and at human CYP11B1 were 529 nM and 2050 nM, respectively.

Turning to `CCC(=O)N[C@H]1c2cncc(-c3cc4c(cc3F)N(C)C(=O)CC4)c2CC[C@@H]1C` (single isomer, unassigned) [Example 45, (+)-N-[(7S,8R or 7R,8S)-4-(7-Fluoro-1-methyl-2-oxo-1,2,3,4-tetrahydro-quinolin-6-yl)-7-methyl-5,6,7,8-tetrahydro-isoquinolin-8-yl]-propionamide], the results for the EC50 on human CYP11B2 and on human CYP11B1 were 54.9 nM and 2620 nM, respectively.
